This test addresses T1, hSGLT2 (Homo sapiens, UniProt P31639).
T1 sequence (P31639 1-672): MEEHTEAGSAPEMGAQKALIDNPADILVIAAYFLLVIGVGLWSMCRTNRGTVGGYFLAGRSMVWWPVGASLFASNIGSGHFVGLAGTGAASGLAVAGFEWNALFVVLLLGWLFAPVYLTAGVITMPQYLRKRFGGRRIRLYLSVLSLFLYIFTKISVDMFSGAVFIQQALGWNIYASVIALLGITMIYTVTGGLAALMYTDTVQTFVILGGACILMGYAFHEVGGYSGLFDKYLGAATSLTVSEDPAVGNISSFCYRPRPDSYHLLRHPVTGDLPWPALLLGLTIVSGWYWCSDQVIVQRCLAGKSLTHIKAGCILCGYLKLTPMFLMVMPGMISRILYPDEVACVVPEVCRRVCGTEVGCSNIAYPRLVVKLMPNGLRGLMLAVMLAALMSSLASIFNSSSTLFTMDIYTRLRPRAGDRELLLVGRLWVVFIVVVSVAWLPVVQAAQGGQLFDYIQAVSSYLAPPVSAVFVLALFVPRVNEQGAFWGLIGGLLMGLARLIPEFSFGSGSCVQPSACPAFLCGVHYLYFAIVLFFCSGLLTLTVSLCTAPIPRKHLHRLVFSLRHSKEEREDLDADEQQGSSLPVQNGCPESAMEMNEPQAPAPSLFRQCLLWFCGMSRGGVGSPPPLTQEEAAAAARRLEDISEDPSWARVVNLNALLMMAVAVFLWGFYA
The test can be described thus: Whole-cell patch clamp, inward glucose current with inhibitor in the intracellular (pipette) solution, hSGLT2. Type of test: cell-based. Details: transfected with 1 μg of the vector containing the hSGLT2 or hSGLT1 coding region; expressed in transfected cells; host or cells: HEK-293T. From the text: Phlorizin was used as a control. […] The intracellular NaCl concentration was maintained at either 5 or 150 mmol/L using CsCl to replace NaCl (Fig. 5A and B).
A general note: Patch clamp records ionic current or voltage across a cell membrane.

Regarding `O=C(CCc1ccc(O)cc1)c1c(O)cc(O)cc1O[C@@H]1O[C@H](CO)[C@@H](O)[C@H](O)[C@H]1O` [phlorizin], the “inhibition of inward hSGLT2 glucose current” value (10 μmol/L phlorizin intracellular, 150 mmol/L intracellular Na+) is given as “no significant inhibition”. In addition, where the note is “200 μmol/L phlorizin intracellular, 150 mmol/L intracellular Na+”, the “decrease in hSGLT2 glucose-induced current” value is reported as 85%. Also, the “inhibition of inward hSGLT2 Na+/glucose current” value (10–200 μmol/L phlorizin intracellular, 5 mmol/L intracellular Na+) was “did not inhibit”.

These data come from PMC4208661, “SGLT2 inhibitors act from the extracellular surface of the cell membrane” (Physiological Reports, 2014).
